Experimental data as given in PubChem BioAssay (NCI).
Some tests of the compounds listed are not included; inactive here does not mean inactive elsewhere.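 Compound exposure: 48 hours, 5 concentrations, 96-well plates. The concentration for 50% growth inhibition is given as GI50. TGI marks complete inhibition of growth.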

Tests used:
Experiment in all cases: DTP human tumour cell line panel, 48 h
[1] = tested on: 786-0 renal
[2] = tested on: A498 renal
[3] = tested on: A549 NSCLC
[4] = tested on: ACHN renal
[5] = tested on: CAKI-1 renal
[6] = tested on: CCRF-CEM leukemia
[7] = tested on: COLO 205 colon
[8] = tested on: DU-145 prostate
[9] = tested on: EKVX NSCLC
[10] = tested on: HCC-2998 colon
[11] = tested on: HCT-116 colon
[12] = tested on: HCT-15 colon
[13] = tested on: HL-60(TB) leukemia
[14] = tested on: HOP-62 NSCLC
[15] = tested on: HOP-92 NSCLC
[16] = tested on: HS 578T breast
[17] = tested on: HT29 colon
[18] = tested on: IGROV1 ovarian
[19] = tested on: K-562 leukemia
[20] = tested on: KM12 colon
[21] = tested on: LOX IMVI melanoma
[22] = tested on: M14 melanoma
[23] = tested on: MALME-3M melanoma
[24] = tested on: MCF7 breast
[25] = tested on: MDA-MB-231 breast
[26] = tested on: MDA-MB-435
[27] = tested on: MOLT-4 leukemia
[28] = tested on: NCI-H226 lung
[29] = tested on: NCI-H23 lung
[30] = tested on: NCI-H322M lung
[31] = tested on: NCI-H460 lung
[32] = tested on: NCI-H522 lung
[33] = tested on: NCI/ADR-RES ovarian
[34] = tested on: OVCAR-3 ovarian
[35] = tested on: OVCAR-4 ovarian
[36] = tested on: OVCAR-5 ovarian
[37] = tested on: OVCAR-8 ovarian
[38] = tested on: PC-3 prostate
[39] = tested on: RPMI-8226 leukemia
[40] = tested on: RXF 393 renal
[41] = tested on: SF-268 CNS
[42] = tested on: SF-295 CNS
[43] = tested on: SF-539 CNS
[44] = tested on: SK-MEL-2 melanoma
[45] = tested on: SK-MEL-28 melanoma
[46] = tested on: SK-MEL-5 melanoma
[47] = tested on: SK-OV-3 ovarian
[48] = tested on: SN12C renal
[49] = tested on: SNB-19 CNS
[50] = tested on: SNB-75 CNS
[51] = tested on: SR leukemia
[52] = tested on: SW-620 colon
[53] = tested on: T-47D breast
[54] = tested on: TK-10 renal
[55] = tested on: U251 CNS
[56] = tested on: UACC-257 melanoma
[57] = tested on: UACC-62 melanoma
[58] = tested on: UO-31 renal

C/C=C\C(O)(C(=O)OC1CCN(C)CC1)C1CCCCC1 (stereo unspecified)
GI50 [1]: > 100 µM
TGI [1]: > 100 µM
GI50 [2]: > 100 µM
TGI [2]: > 100 µM
GI50 [3]: > 100 µM
TGI [3]: > 100 µM
GI50 [4]: > 100 µM
TGI [4]: > 100 µM
GI50 [5]: 37.7 µM
TGI [5]: > 100 µM
GI50 [6]: > 100 µM
TGI [6]: > 100 µM
GI50 [7]: > 100 µM
TGI [7]: > 100 µM
GI50 [8]: > 100 µM
TGI [8]: > 100 µM
GI50 [9]: > 100 µM
TGI [9]: > 100 µM
GI50 [10]: > 100 µM
TGI [10]: > 100 µM
GI50 [11]: > 100 µM
TGI [11]: > 100 µM
GI50 [12]: > 100 µM
TGI [12]: > 100 µM
GI50 [13]: > 100 µM
TGI [13]: > 100 µM
GI50 [14]: > 100 µM
TGI [14]: > 100 µM
GI50 [15]: > 100 µM
TGI [15]: > 100 µM
GI50 [16]: > 100 µM
TGI [16]: > 100 µM
GI50 [17]: > 100 µM
TGI [17]: > 100 µM
GI50 [18]: > 100 µM
TGI [18]: > 100 µM
GI50 [19]: > 100 µM
TGI [19]: > 100 µM
GI50 [20]: > 100 µM
TGI [20]: > 100 µM
GI50 [21]: > 100 µM
TGI [21]: > 100 µM
GI50 [22]: > 100 µM
TGI [22]: > 100 µM
GI50 [23]: > 100 µM
TGI [23]: > 100 µM
GI50 [24]: > 100 µM
TGI [24]: > 100 µM
GI50 [25]: > 100 µM
TGI [25]: > 100 µM
GI50 [26]: > 100 µM
TGI [26]: > 100 µM
GI50 [27]: > 100 µM
TGI [27]: > 100 µM
GI50 [28]: > 100 µM
TGI [28]: > 100 µM
GI50 [29]: > 100 µM
TGI [29]: > 100 µM
GI50 [30]: > 100 µM
TGI [30]: > 100 µM
GI50 [31]: > 100 µM
TGI [31]: > 100 µM
GI50 [32]: > 100 µM
TGI [32]: > 100 µM
GI50 [33]: > 100 µM
TGI [33]: > 100 µM
GI50 [34]: > 100 µM
TGI [34]: > 100 µM
GI50 [35]: > 100 µM
TGI [35]: > 100 µM
GI50 [36]: > 100 µM
TGI [36]: > 100 µM
GI50 [37]: > 100 µM
TGI [37]: > 100 µM
GI50 [38]: > 100 µM
TGI [38]: > 100 µM
GI50 [39]: > 100 µM
TGI [39]: > 100 µM
GI50 [40]: > 100 µM
TGI [40]: > 100 µM
GI50 [41]: > 100 µM
TGI [41]: > 100 µM
GI50 [42]: > 100 µM
TGI [42]: > 100 µM
GI50 [43]: > 100 µM
TGI [43]: > 100 µM
GI50 [44]: > 100 µM
TGI [44]: > 100 µM
GI50 [45]: > 100 µM
TGI [45]: > 100 µM
GI50 [46]: > 100 µM
TGI [46]: > 100 µM
GI50 [47]: > 100 µM
TGI [47]: > 100 µM
GI50 [48]: > 100 µM
TGI [48]: > 100 µM
GI50 [49]: 41.6 µM
TGI [49]: > 100 µM
GI50 [50]: 80.1 µM
TGI [50]: > 100 µM
GI50 [51]: > 100 µM
TGI [51]: > 100 µM
GI50 [52]: 25.2 µM
TGI [52]: 63.1 µM
GI50 [53]: > 100 µM
TGI [53]: > 100 µM
GI50 [54]: > 100 µM
TGI [54]: > 100 µM
GI50 [55]: > 100 µM
TGI [55]: > 100 µM
GI50 [56]: > 100 µM
TGI [56]: > 100 µM
GI50 [57]: > 100 µM
TGI [57]: > 100 µM
GI50 [58]: > 100 µM
TGI [58]: > 100 µM
